Test [1] deals with Fibroblast growth factor receptor 2 (Homo sapiens) (UniProt P21802). Nature of the test: Selectivity interaction (KinomeScan (DiscoverX)) EUB0000699a FGFR2. The note with it: at 10 µM.
Test [2] concerns the target Fibroblast growth factor receptor 4 (Homo sapiens, UniProt P22455). Kind of test: Selectivity interaction (KinomeScan (DiscoverX)) EUB0000699a FGFR4. Particulars: at 10 µM.

Amino acid sequences for entries named in this document (tags omitted).
UniProt P21802, whole entry, looked up: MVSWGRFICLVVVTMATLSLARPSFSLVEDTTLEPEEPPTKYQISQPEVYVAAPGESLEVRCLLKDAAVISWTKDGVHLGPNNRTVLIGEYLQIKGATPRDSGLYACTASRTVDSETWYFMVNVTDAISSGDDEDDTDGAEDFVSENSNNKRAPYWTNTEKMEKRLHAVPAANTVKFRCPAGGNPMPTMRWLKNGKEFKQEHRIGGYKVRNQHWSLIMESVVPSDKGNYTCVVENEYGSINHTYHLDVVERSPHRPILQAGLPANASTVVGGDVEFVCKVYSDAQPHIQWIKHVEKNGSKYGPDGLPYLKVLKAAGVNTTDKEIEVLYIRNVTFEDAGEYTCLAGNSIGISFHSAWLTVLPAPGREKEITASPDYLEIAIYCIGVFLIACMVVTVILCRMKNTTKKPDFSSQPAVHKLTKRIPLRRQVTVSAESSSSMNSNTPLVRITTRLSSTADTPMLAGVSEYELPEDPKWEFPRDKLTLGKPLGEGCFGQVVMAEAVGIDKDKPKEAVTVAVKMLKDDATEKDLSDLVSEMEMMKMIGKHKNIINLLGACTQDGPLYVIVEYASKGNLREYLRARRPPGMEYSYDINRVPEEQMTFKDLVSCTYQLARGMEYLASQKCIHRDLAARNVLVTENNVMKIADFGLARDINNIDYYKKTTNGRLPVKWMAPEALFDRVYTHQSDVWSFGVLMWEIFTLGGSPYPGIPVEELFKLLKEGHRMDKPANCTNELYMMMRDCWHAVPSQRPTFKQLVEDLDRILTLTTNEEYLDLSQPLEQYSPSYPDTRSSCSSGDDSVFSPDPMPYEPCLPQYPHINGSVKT
UniProt P22455, whole entry, looked up: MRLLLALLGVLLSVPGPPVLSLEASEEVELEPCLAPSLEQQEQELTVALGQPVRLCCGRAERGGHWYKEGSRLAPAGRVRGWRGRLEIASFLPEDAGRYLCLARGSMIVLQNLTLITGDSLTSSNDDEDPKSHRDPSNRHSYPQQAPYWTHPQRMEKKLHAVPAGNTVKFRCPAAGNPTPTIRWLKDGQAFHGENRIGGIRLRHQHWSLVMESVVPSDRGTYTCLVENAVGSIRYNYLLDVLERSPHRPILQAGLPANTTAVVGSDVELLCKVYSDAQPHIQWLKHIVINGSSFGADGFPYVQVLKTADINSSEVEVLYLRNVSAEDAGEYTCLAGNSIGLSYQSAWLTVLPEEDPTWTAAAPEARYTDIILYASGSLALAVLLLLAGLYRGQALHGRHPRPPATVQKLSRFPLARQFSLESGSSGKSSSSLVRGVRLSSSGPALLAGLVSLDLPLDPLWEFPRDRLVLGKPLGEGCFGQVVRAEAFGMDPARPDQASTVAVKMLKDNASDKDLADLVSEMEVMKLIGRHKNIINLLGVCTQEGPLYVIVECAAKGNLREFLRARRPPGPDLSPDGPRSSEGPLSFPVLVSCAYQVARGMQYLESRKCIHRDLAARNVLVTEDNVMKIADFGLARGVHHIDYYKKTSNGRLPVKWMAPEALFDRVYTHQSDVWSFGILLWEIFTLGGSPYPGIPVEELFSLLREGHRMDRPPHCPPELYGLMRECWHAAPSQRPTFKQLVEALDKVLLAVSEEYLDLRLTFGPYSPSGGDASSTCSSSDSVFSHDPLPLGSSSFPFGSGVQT

Consider `CCN(CC)CCCCNc1ncc2cc(-c3cc(OC)cc(OC)c3)c(NC(=O)NC(C)(C)C)nc2n1`, for which the % of control in test [1] amounted to 2.9%; in test [2] it was 17%.

The record behind these values is ChEMBL document CHEMBL5465560, “Selectivity Literature for EUbOPEN Chemogenomic Library” (2024).
